What was measured:
[1] = tested on: Z-Arg-Leu-Arg-Gly-Gly (SEQ ID NO: 1)-amino-luciferin
[2] = molecular target: ubiquitin-7-amino-4-methylcoumarin (UniProt P0CG47)
ubiquitin-rhodamine110 = ubiquitin-rhodamine110 (UniProt P0CG47)

JosD1 (Josephin-1)
Signal to Background, luminescence, DUB 10 nM [1]: 1.3 S/B
Signal to Background, luminescence, DUB 10 nM (Ub(1-76)-aminoluciferin): 74 S/B
Signal to Background, fluorescence, DUB 10 nM [2]: 1.1 S/B
Signal to Background, fluorescence, DUB 10 nM (ubiquitin-rhodamine110): 1.5 S/B

Reference: patent US20120058499
